# Assay results published in patent US5556942A, “Glutathione S-transferase-activated compounds” (priority 1994, dated 1996).
# Conditions: no GST; compound 300 μM; disappearance by HPLC
# Experimental: The compound to be tested was dissolved in 0.2M phosphate buffer and a solution of GST was added. The final concentration was 0.3 mM test compound and 0.006 mM GST, pH 7.3 for TER 230; for TER 231 GST was 0,003 mM, pH 7.1. The solution was incubated at 37°. Decomposition was followed by HPLC. The column was J. T. Baker C18 250×4.6 mm with 5μ particles. The A buffer was 0.05M ammonium acetate, pH 5.5; 5% CH3 CN; B buffer was 70% CH3 CN in A.
# The column was run with a gradient of 20%-50% B over 15 min. then to 100% B in 3 mins; then back to 20% B over 6 mins. A 10 μL sample was injected and the flow rate was 1 ml/min. Aliquots were removed and catalytic decomposition was quenched by addition of acetic acid. Overnight HPLC utilizing an autosampler were used; the rates of decomposition were calculated by measuring the rate of disappearance of the peak versus an internal standard which was 0.06 mM of an inert peptide marker.
# In addition, half-lives were determined as described above using 3 μM recombinant human GST P1-1, A1-1 or M1a-1a starting with a concentration of the compound to be tested at 300 μM and monitoring disappearance using HPLC.
row,"IN VITRO HALF LIVES, CONTROL",Substance
1,280 min,"γ-glutamyl-α-Amino-β-(1-phenyl, (2'ethyl-N,N,N,N-tetra(2'-chloro)ethylphosphoroamidate)sulfonyl) propionyl glycine [TER 296]"
2,335 min,"γ-glutamyl-α-Amino-β-((2-ethyl-N,N,N,N-tetra(2'-chloro)eth ylphosphoroamidate)sulfonyl)propionylphenylalanine [TER 303]"
